# From patent US10246456B2, “IRAK4 inhibiting agents” (BIOGEN MA INC., priority 2014, dated 2019)
# Sequences of proteins named here, by UniProt entry; tags and fusion partners are left off.
# UniProt Q9NWZ3, whole entry, species assumed: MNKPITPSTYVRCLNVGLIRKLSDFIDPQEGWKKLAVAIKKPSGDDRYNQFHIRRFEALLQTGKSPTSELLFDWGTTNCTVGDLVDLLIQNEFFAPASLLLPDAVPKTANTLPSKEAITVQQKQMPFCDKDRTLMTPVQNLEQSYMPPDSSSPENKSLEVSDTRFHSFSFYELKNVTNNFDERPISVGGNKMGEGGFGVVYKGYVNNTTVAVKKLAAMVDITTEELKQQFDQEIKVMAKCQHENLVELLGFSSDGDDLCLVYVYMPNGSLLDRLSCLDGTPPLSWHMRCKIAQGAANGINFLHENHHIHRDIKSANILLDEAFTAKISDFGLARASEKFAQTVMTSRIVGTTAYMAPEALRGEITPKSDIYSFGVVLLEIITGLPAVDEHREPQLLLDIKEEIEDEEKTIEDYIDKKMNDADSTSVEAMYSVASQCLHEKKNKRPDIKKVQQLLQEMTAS
# Biological target: IRAK4 (Homo sapiens (Human), UniProt Q9NWZ3)
# Test: IRAK-4 AlphaScreen biochemical kinase assay
# Conditions: IC50, 1 nM IRAK4, 1 mM ATP, 3.5 h at RT
# Procedure: The biochemical assay is in a AlphaScreen format. The kinase reaction is based on the IRAK-4 phosphorylation of a biotin labeled peptide. The phosphopeptide is incubated with anti-phosphothreonine antibody as well as streptavidin- and protein A-coated beads. Binding of the protein-A coated beads to the antibody and the streptavidin beads to the peptide, leads to an energy transfer from one bead to the other, ultimately producing a luminescent/fluorescent signal.
# Generally, the kinase reaction is carried out at 1 nM IRAK4, 1.6 μM peptide, 1 mM ATP in reaction buffer 50 mM Hepes, 60 mM NaCl, 5 mM MgCl2, 0.25 mM MnCl2, 2 mM DTT, 0.01% BSA, 0.01% Tween-20) for 3.5 h at RT.
smiles,measurement,value
"CN(C)C(=O)c1cccc(-n2ncc3ccc(-c4cncc(N)c4)cc32)n1 [Example 64, 6-(6-(5-aminopyridin-3-yl)-1H-indazol-1-yl)-N,N-dimethylpicolinamide]",IC50,100 to 1000 nM
